The chains behind the UniProt entries cited, without tags or fusion partners.
UniProt P30542, whole entry: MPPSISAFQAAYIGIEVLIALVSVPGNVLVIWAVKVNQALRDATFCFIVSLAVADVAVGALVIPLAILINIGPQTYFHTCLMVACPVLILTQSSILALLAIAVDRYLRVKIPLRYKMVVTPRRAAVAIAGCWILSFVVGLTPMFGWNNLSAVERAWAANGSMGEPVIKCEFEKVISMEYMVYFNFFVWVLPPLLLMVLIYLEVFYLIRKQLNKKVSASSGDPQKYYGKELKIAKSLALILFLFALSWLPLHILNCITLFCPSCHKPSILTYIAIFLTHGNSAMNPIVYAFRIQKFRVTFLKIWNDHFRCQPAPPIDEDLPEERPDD

In ChEMBL document CHEMBL1143999, “A new generation of adenosine receptor antagonists: from di- to trisubstituted aminopyrimidines” (Bioorg Med Chem, 2008):

Target: Adenosine receptor A1 (Homo sapiens, UniProt P30542)
Experiment: biochemical

| Compound | Ki |
| --- | --- |
| N#Cc1c(-c2ccccc2)nc(N)nc1-c1ccccc1 | 0.0033 µM |
| Nc1nc(-c2ccccc2)cc(-c2ccc3c(c2)OCO3)n1 | 0.0348 µM |
